From patent publication US20220033460A1, “IDENTIFICATION AND USE OF T CELL EPITOPES IN DESIGNING DIAGNOSTIC AND THERAPEUTIC APPROACHES FOR COVID-19” (priority 2020, published 2022)

Molecular target: T1, I-Ab (mouse), P14434
T1 chain 1: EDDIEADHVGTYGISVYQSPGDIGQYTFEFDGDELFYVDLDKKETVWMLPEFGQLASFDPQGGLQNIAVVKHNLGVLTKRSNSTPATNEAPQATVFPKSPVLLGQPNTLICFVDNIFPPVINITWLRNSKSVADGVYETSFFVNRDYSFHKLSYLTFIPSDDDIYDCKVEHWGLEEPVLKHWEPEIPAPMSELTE
T1 chain 2: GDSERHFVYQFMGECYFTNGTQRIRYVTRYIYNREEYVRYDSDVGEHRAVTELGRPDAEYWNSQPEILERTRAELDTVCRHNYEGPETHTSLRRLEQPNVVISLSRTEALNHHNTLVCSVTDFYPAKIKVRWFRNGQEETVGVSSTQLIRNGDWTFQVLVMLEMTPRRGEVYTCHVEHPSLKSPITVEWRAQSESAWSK
Experiment: biochemically tested I-Ab binding affinity (method not told)

B1: … (peptide)
peptide: IIKYNRRLAKSIICE
modifications: not checked
IC50: 8.39 µM

B2: … (peptide)
peptide: IEYAKLYVLSPILAE
modifications: not checked
IC50: 0.282 µM

B3: … (peptide)
peptide: GLVSQLSVLSSITNI
modifications: not checked
IC50: 5.28 µM

B4: … (peptide)
peptide: YDMFNLLLMKPLGIE
modifications: not checked
IC50: 6.75 µM
